scFv variants of Ab-14 (light chain) against a SARS-CoV-2 spike peptide

Target: peptide PDVDLGDISGINAS, taken from heptad repeat 2 (HR2) of SARS-CoV-2 spike.

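The parent was found by panning a naive human phage display library on the peptide. These sequences belong to a second round, designed from the earlier measurements on random variants of the parent. Group labels follow the data file (En: ensemble of fine-tuned language models; GP: Gaussian process model; HC: hill climbing; Gen: genetic algorithm; Gibbs: Gibbs sampling; a sequence that several methods proposed may carry one label only). The scFvs were displayed on barcoded MATa yeast, the peptide on MATalpha yeast. Mating (16 h, 30 °C) was followed by selection of diploids and sequencing of their barcodes. Read counts were normalised to the haploid input and turned into Kd by a linear fit to BCL2-family pairs of known affinity, for each replicate. The assay was run in six technical replicates.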

Ab-14 is the parent antibody, in scFv form: VH, then three GGGGS repeats, then VL. The heavy chain is unchanged in all variants.
VH: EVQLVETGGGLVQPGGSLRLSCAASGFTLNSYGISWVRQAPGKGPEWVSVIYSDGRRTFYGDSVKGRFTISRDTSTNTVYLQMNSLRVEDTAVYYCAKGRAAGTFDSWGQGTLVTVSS
VL: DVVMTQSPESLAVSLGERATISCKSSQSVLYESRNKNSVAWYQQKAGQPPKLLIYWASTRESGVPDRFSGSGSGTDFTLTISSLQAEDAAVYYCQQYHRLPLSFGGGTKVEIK

Variants are written as CDR1, CDR2 and CDR3 of the light chain (limits as in the source). Parent: KSSQSVLYESRNKNSVA, WASTRES, QQYHRLPLS. Variants here have more than six changes. The read-out is the apparent dissociation constant on a log10 scale (nM): the lower, the stronger. A pair that was not seen in that replicate is written "nd"; this usually means weak binding, but a binder can also be missed. Values of this round are not directly comparable with the first-round values of the same sequences. Background: pairings of all light chain designs with three empty control strains gave a value in 4% of cases (median 2.64, 5th percentile 1.59). Values in that range, when seen in few replicates, are hard to tell from nonspecific mating. The authors averaged sequences with at least three values out of six and counted those with two or fewer as poor binders.

| CDR-L1 | CDR-L2 | CDR-L3 | group | replicates, log10 nM |
|---|---|---|---|---|
| KSYQSSWYEDRNKNSVA | NASLRCS | QQYHRLPLS | GP_Gibbs | 0.32 / 0.34 / 0.32 / 0.20 / 0.14 / 0.09 |
| KFDQSQDYESRNKNSVA | QASQREQ | QQYHRLPLY | GP_Gibbs | 0.50 / 0.14 / 0.02 / 0.27 / 0.11 / 0.44 |
| MVSQLMLWGLHAKNSIA | EAQTRHN | QQYDRLPLF | En_Gen | nd / nd / 1.14 / nd / nd / 2.22 |
| KLRSVTGTEKVKGNNVA | EMETRER | QQYNRLPLS | En_Gen | 0.36 / -0.04 / 0.12 / -0.10 / -0.10 / 0.31 |
| HMSMLTLQGMRHMNSVA | QMTTRVN | QQYDRLPLV | En_Gen | 2.00 / 2.47 / 2.06 / nd / 2.09 / nd |
| HVSQMVMYGSCNANNVA | QVSTREE | QQYHRLPLS | En_HC | 1.16 / 0.97 / 0.91 / 0.89 / 0.80 / 0.72 |
| QFAGAMYGGGNDWSNIA | EAMTYIK | QQYSRLPLI | En_Gibbs | nd / nd / nd / nd / nd / nd |
| KIMQSLNYESFGKNSVA | GQETRER | QSYHRLPLS | En_HC | 2.24 / 4.57 / 2.79 / 1.70 / 1.12 / 2.21 |
| KLPHLSFVHDREKNNVA | DLNVKCA | QQYDRLPLA | En_Gibbs | 0.46 / 0.31 / 0.01 / -0.10 / -0.10 / 0.07 |
| QFHSHMAGDGNIQHSIA | EASCAEP | QSYFRLPLS | En_Gibbs | nd / 1.63 / 1.82 / 1.33 / nd / nd |
| MISDLTMYGSRNKSSVA | DSSTRGS | QQYHRLPLS | En_HC | 0.92 / 0.97 / 1.02 / 0.88 / 1.14 / 1.13 |
| QISMLLNFESKIGQNVA | QMETRVN | QQYHHLPLS | En_Gen | 1.41 / 1.32 / 0.81 / 2.18 / 1.17 / 1.09 |
| QLTMITGHMSVSKNNVA | EMETRMN | QQYDRLPLS | En_Gen | 0.99 / 1.09 / 0.77 / 0.64 / 0.75 / 0.97 |
| SMQLNQIEGNQQQNSIA | GESEADM | QHYARLPLT | En_Gibbs | nd / nd / nd / nd / nd / nd |
| KLSGLMRVEQKKSNSIA | EMTTRGK | QQYDRLPLS | En_Gen | 1.07 / 1.48 / 1.34 / 0.95 / 0.61 / 1.50 |
| SLGLVTMLEYAERNNVA | NNSTRED | QQYDRLPLS | En_Gen | 1.53 / 1.20 / 1.27 / 1.11 / 1.25 / 0.93 |
| IISQVDGYLSRNKNSIA | DQSTRGS | QQYDRLPLS | En_HC | 0.81 / 0.51 / 0.87 / 0.75 / 0.95 / 0.89 |
| KITGMWTFESRNKNSIA | EVSTRPS | QSYHRLPLS | En_HC | 0.66 / 0.60 / 0.57 / 0.51 / 0.67 / 0.67 |
| MISDLTMYGSRNKYSVA | DLSTRGS | QQYHRLPLS | En_HC | 0.80 / 0.84 / 0.54 / 1.00 / 0.96 / 0.97 |
| TLTQVQGMESHNKDNVA | DLSTRGS | QQYHRLPLS | En_HC | 0.24 / 0.38 / 0.21 / 0.05 / -0.19 / 0.23 |
| KQQYGQDYSSRNDNSVA | DASTRES | QQYHRLPLS | GP_Gibbs | 0.01 / 0.02 / -0.36 / -0.47 / 0.04 / 0.01 |
| NIYQAMHTLSMNRNNVA | DVNERGS | QQYFRLPLS | En_Gen | 0.19 / -0.16 / -0.33 / -0.26 / -0.05 / -0.11 |
| TLDLWTSYGNGENKAIA | DVSIKDY | QQYARLPLL | En_Gibbs | 0.28 / 0.51 / 0.56 / 0.52 / 0.56 / 0.86 |
| MISDLTYLGLRNVNSVA | DLSMRGN | QQYDRLPLS | En_HC | 1.15 / 0.88 / 1.08 / 0.93 / 0.84 / 1.18 |
| KFSQGFLYEERQKNSVA | NASQRES | QQYHRLPLS | GP_Gibbs | 0.28 / -0.06 / 0.04 / -0.15 / 0.16 / 0.07 |
| TIGGTLMYGMRNRSNVA | EVSQRLN | QQYDRLPLI | En_Gen | 2.40 / 1.43 / 1.33 / 2.00 / 1.71 / 2.16 |
| KLYQVTTEHGAALNNIA | EGARRND | QQYARLPLV | En_Gibbs | 0.53 / 0.20 / 0.29 / 0.43 / 0.47 / 0.48 |
| TLDMVARGLTRKEDSVA | DNSTRED | QQYDRLPLS | En_Gen | nd / nd / nd / nd / nd / nd |
| HTQHLGFGDYAWANSIA | ERSQVCA | QQYFRLPLI | En_Gibbs | 1.64 / 1.03 / 0.80 / 1.21 / 1.34 / 1.25 |
| KLQFSVDYESRNKNAVA | EASTREK | QQYHRLPLS | GP_Gibbs | 0.38 / -0.53 / -0.70 / -0.28 / -0.37 / -0.29 |
| MLSQMFGLGMKAKNSVA | QASMRFN | QQYDRLPLI | En_Gen | nd / 1.14 / nd / nd / 1.33 / 2.16 |

Top 3 of the variants detected in all replicates, tightest first:

{"CDR-L1": "KLQFSVDYESRNKNAVA", "CDR-L2": "EASTREK", "CDR-L3": "QQYHRLPLS", "group": "GP_Gibbs", "replicates, log10 nM": "0.38 / -0.53 / -0.70 / -0.28 / -0.37 / -0.29"}
{"CDR-L1": "KQQYGQDYSSRNDNSVA", "CDR-L2": "DASTRES", "CDR-L3": "QQYHRLPLS", "group": "GP_Gibbs", "replicates, log10 nM": "0.01 / 0.02 / -0.36 / -0.47 / 0.04 / 0.01"}
{"CDR-L1": "NIYQAMHTLSMNRNNVA", "CDR-L2": "DVNERGS", "CDR-L3": "QQYFRLPLS", "group": "En_Gen", "replicates, log10 nM": "0.19 / -0.16 / -0.33 / -0.26 / -0.05 / -0.11"}

The measurements come from Li et al. 2023 (doi:10.1038/s41467-023-39022-2) through the FLAb antibody collection.